Tested on: C2C12 myoblasts
Test: ALP staining for transdifferentiation of C2C12 myoblasts to osteoblasts
Type: cell-based, mouse
Conditions: positive control, 1 μg/ml of BMP-2
Source text: We screened for chimeric zinc finger proteins that induce transdifferentiation of C2C12 myoblasts to osteoblasts in the absence of BMP-2. We transiently transfected a nucleic acid library encoding chimeric zinc finger proteins into C2C12 cells and screened for cells that undergo transdifferentiation in the absence of BMP-2. Seven days after transfection, the transformed cells were stained for alkaline phosphatase (ALP), a marker for osteoblasts (Katagiri, T. et al., (1994) J. Cell. Biol. 127:1755).
For these experiments, the mouse myoblast cell line, C2C12, was maintained in Dulbecco's Modified Eagle's Medium (DMEM) with 4.5 g/L glucose, 10% FBS, and antibiotics, at 37° C., in a humidified atmosphere containing 95% air and 5% CO2. Cells were seeded at 1.0·10^4 cells per 96-well culture plates. The cells were transfected with 50 ng of library nucleic acid using LIPOFECTAMINE PLUS™ (Invitrogen) according to the manufacturer's protocol. Twenty-four hours after transfection, the growth medium was replaced with DMEM containing 2% FBS, and the cells were cultured for an additional six days.
To examine the differentiation of C2C12 cells to osteoblasts, ALP staining was performed as described in Katagiri, T. et al., (1994) J. Cell. Biol. 127:1755.

B1: BMP-2: bone morphogenic protein-2, positive control (protein, UniProt P12643 283-396, looked up)
Bone morphogenetic protein 2: QAKHKQRKRLKSSCKRHPLYVDFSDVGWNDWIVAPPGYHAFYCHGECPFPLADHLNSTNHAIVQTLVNSVNSKIPKACCVPTELSAISMLYLDENEKVVLKNYQDMVVEGCGCR
In the case of B1, the “cells strongly stained for ALP” value is reported as roughly 100%.
